Laboratory results published in US12268704B2, “Hippo regulation of cardiac vascularity, fibrosis, and inflammation” (Baylor College of Medicine, priority 2018, dated 2025).

Protein sequences, listed by entry. Tags and fused reporters are not part of them. Lines headed by an entry give the natural chain unless they say otherwise; changes in a name come on top.
UniProt P28843: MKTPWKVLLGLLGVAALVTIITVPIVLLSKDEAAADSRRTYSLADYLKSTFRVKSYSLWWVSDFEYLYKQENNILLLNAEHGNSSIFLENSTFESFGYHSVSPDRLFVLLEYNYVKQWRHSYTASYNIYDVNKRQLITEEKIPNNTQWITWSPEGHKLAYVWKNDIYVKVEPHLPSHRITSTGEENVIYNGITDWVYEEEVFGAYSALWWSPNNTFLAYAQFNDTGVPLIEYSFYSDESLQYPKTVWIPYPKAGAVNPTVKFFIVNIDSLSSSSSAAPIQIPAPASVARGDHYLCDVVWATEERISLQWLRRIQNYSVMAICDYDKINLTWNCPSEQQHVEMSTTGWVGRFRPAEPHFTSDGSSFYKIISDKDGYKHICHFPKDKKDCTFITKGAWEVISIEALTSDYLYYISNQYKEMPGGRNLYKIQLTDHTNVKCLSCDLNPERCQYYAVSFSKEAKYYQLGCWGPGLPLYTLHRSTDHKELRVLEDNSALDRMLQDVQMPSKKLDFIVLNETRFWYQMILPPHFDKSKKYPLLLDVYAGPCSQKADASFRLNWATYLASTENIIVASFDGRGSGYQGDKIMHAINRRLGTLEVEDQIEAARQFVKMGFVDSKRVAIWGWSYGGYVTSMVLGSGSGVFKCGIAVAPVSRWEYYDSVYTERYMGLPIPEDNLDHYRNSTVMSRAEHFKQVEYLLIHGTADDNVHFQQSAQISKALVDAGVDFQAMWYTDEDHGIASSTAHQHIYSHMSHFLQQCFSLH

Target: Dpp4 (Mus musculus, UniProt P28843)

- junction density (Lats1/2 CKO E14.5 hearts treated with Sitagliptin versus controls, Pecam-1 IF): reduced
- blood islands, dorsal side of heart (Lats1/2 CKO E14.5 hearts treated with Sitagliptin, Pecam-1): lacked blood islands
- disorganized coronary vessel phenotype (Pecam IF and automated quantification) (Lats1/2 CKO E14.5 hearts, 0.01 mg/g by gavage to plugged female at E11.5, E12.5 and E13.5, compared with untreated Lats1/2 CKO): partially suppressed
SMILES: N[C@@H](CC(=O)N1CCn2c(nnc2C(F)(F)F)C1)Cc1cc(F)c(F)cc1F [Sitagliptin, Sitagliptin phosphate]
